Data taken from patent US11364222B2, “Combination therapy for treatment of cancer” (G1 Therapeutics, Inc., priority 2017, dated 2022).

Sequences of proteins named here, by UniProt entry; tags and fusion partners are left off.
UniProt P03372, whole entry Y537S: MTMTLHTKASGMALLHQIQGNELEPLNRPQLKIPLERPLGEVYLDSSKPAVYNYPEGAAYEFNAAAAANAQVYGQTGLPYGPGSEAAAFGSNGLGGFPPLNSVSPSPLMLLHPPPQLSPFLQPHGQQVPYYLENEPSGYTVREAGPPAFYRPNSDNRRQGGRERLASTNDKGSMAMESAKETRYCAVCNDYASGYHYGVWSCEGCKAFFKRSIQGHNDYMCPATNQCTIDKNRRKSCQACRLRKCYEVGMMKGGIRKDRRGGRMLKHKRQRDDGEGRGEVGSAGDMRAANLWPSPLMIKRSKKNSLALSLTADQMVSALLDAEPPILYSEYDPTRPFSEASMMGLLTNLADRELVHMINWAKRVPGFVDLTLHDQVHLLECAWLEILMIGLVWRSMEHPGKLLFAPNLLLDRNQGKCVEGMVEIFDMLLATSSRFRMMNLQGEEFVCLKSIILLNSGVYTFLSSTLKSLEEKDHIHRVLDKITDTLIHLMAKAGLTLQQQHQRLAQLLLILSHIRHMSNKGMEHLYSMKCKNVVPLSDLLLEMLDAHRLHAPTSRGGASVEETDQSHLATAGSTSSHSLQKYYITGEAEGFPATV
UniProt P03372, whole entry D538G: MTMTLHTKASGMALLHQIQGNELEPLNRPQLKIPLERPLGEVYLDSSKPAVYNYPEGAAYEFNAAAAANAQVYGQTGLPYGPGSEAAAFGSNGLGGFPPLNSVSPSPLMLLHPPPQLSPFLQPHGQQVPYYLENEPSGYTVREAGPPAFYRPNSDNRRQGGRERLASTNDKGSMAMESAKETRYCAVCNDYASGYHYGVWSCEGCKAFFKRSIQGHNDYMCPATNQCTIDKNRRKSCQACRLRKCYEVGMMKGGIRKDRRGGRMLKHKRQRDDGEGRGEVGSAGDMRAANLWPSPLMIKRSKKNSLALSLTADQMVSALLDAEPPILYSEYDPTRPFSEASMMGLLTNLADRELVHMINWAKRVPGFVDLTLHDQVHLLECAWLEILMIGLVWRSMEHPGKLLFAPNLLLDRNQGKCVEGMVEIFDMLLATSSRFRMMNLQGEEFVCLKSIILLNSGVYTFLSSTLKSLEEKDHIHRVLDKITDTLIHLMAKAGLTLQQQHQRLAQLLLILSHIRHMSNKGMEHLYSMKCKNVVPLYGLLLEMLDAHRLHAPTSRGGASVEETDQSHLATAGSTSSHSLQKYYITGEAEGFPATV
UniProt P03372, whole entry: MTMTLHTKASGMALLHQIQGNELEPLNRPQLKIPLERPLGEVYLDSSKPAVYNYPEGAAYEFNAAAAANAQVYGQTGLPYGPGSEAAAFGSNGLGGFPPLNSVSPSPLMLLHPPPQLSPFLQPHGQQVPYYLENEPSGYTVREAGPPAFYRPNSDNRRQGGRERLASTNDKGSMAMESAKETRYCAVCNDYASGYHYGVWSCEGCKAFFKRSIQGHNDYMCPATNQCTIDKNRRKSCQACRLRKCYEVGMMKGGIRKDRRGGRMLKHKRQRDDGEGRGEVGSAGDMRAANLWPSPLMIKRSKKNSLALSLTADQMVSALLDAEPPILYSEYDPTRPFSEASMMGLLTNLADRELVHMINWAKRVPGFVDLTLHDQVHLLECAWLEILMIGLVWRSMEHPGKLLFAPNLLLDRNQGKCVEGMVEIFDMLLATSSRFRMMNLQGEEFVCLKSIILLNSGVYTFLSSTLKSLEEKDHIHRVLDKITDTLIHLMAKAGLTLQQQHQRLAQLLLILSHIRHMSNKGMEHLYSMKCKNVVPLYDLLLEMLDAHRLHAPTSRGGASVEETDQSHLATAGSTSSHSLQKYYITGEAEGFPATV

Experiments:
Type in all cases: cell-based
mutant ER (Y537S) = molecular target: T1, mutant ER (Y537S) (Homo sapiens, UniProt P03372, Y537S); assay: SKBR3 (Y537S ER) ER-driven transcription, light units
T1 construct: expressed in transfected cells; host or cells: SKBR3

mutant ER (D538G) = molecular target: T2, mutant ER (D538G) (Homo sapiens, UniProt P03372, D538G); assay: SKBR3 (D538G ER) ER-driven transcription, light units
T2 construct: expressed in transfected cells; host or cells: SKBR3

wild-type ER (wtER) = molecular target: T3, wild-type ER (wtER) (Homo sapiens, UniProt P03372); assay: SKBR3 (wild type ER) ER-driven transcription, light units; settings: IC50, SKBR3 (WT ER), SKBR3 cells with wild type estrogen receptor
T3 construct: expressed in transfected cells; host or cells: SKBR3

IC50 (mutant ER (Y537S); IC50, SKBR3 (Y537S ER), SKBR3 cells with Y537S mutated estrogen receptor, light units): 2.57 nM | IC50 (mutant ER (Y537S); IC50 ER^Y537S (nM), Table 10, values collected in Example 12): 2.6 nM | IC50 (mutant ER (D538G)): 1.2 nM | IC50 (wild-type ER (wtER)): 0.45 nM
SMILES: C[C@@H]1Cc2c([nH]c3ccccc23)[C@@H](c2c(F)cc(/C=C/C(=O)O)cc2F)N1CC(C)(C)F [AZD9496]
